Data as given in PubChem BioAssay AID463115 (University of Pittsburgh Molecular Library Screening Center, 2010).
The list shows a part of the results, in another mix than the full data. Calls of active or inactive are those of the source. No stated cut-off is given here; in the data, active means inhibition above about 25%; inactive means the rest.

Amino acid sequences for entries named in this document (tags omitted).
UniProt P09958, whole entry, looked up: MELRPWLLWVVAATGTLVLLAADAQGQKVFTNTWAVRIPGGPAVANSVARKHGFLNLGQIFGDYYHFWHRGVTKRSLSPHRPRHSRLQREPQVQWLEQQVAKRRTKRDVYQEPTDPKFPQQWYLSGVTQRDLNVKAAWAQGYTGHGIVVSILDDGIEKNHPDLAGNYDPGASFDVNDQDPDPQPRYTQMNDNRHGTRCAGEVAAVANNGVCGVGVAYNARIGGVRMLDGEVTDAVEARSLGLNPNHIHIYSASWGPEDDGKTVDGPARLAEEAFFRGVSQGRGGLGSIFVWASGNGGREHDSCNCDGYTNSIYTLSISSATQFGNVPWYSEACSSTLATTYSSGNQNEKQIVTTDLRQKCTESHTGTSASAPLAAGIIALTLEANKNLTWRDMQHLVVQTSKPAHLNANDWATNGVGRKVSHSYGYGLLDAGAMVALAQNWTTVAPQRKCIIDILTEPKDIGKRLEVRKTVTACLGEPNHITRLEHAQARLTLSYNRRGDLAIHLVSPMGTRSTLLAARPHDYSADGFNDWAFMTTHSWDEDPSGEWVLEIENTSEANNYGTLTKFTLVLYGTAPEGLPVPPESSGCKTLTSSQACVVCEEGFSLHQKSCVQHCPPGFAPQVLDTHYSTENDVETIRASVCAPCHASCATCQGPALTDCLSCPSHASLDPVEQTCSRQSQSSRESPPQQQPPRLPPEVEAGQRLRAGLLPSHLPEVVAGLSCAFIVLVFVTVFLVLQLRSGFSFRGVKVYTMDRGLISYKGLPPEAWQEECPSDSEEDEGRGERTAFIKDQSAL

Molecular target: Furin (Homo sapiens) (UniProt P09958)
Assay: furin protease activity blockers – biochemical, fluorescence intensity, primary screen (AID 463115)
Conditions: purified furin, fluorogenic substrate cleavage, stronger effect = higher value; at 30 µM unless noted

Structure (SMILES) | inhibition
C[C@H]1OP(=O)(Oc2ccccc2)C[C@@H]2O[C@@H]21 (stereo partly specified) | inactive: -22.6%
CC(=O)Nc1ccc(Oc2c([N+](=O)[O-])cc([N+](=O)[O-])cc2[N+](=O)[O-])cc1 | inactive: -5.35%
CC(=O)Nc1ccc([As](=O)(O)O)c(O)c1 | inactive: -10.1%
CCOc1ccc(C2=NCC(CBr)S2)cc1 (stereo unspecified) | inactive: -13.9%
O=P1(Nc2nc3ccc(Cl)cc3s2)COc2ccccc2O1 (stereo unspecified) | inactive: -19.8%
CC(C)(C)C(=O)NC(Sc1ccccc1)C(Cl)(Cl)Cl (stereo unspecified) | inactive: -11%
O=P(Nc1nccs1)(c1ccccc1)c1ccccc1 | inactive: -10.7% [at 20 µM]
CC(C)C(=O)NC(Sc1ccccc1)C(Cl)(Cl)Cl (stereo unspecified) | inactive: -31.7%
c1nnnn1CCn1cnnn1 | inactive: -25.3%
O=[As](O)(c1ccccc1)c1ccc(O)cc1 | inactive: -21.7%
CC(=O)NC(SC(=S)N(C)C)C(Cl)(Cl)Cl (stereo unspecified) | inactive: -30.6%
O=[N+]([O-])c1ncn(CCn2cnc([N+](=O)[O-])n2)n1 | inactive: -16.5%
O=C(OC1CN2CCC1CC2)c1cccc(Cl)c1 (stereo unspecified) | inactive: -10.6%
Nc1ccc([As](=O)(O)c2ccc([N+](=O)[O-])cc2)cc1 | inactive: -12.1%
C(Cc1nn[nH]n1)Cc1nn[nH]n1 | inactive: -23.6%
O=P(Nc1ccccn1)(c1ccc(Br)cc1)c1ccc(Br)cc1 | inactive: -25.4%
C[C@H]1OP(=O)(Oc2ccccc2)[C@H](O)[C@H](O)[C@H]1N=[N+]=[N-] (stereo partly specified) | inactive: -23.3%
O=P(Nc1nc2ccccc2s1)(c1ccccc1)c1ccccc1 | inactive: -13.3%
O=P1(Nc2ncccn2)COc2ccccc2OC1 | inactive: -21.5%
Nc1cccc([As](=O)(O)c2ccccc2)c1 | inactive: -25.8%
O=P1(Nc2ccc(Br)cn2)COc2ccccc2OC1 | inactive: -25.7%
Cc1ccc(OCC(=O)OC2CN3CCC2CC3)cc1 (stereo unspecified) | inactive: -13.1% [at 20 µM]
O=[As](O)(c1cccs1)c1cccs1 | inactive: -28.4%
CC1CCC(C(C)C)C(OP(=O)(Nc2ccccn2)c2ccccc2)C1 (stereo unspecified) | inactive: -23.5%
Cc1nn(-c2ccccc2)c2c1P(=O)(N1CCOCC1)N(C)C(c1ccccc1)=N2 (stereo unspecified) | inactive: -19.5% [at 20 µM]
CN(C)C1(CNC(=O)c2ccc(S(C)(=O)=O)cc2)CCCCC1 | inactive: -25%

Structure (SMILES) | inhibition
O=C(/C=C/c1ccccc1)OC1CN2CCC1CC2 (stereo unspecified) | inactive: -13.7%
CC(C)/C=N\N=C(\N)N[N+](=O)[O-] | inactive: -21.5%
CC1(CBr)Cn2c(nc3ccccc3c2=O)S1 (stereo unspecified) | inactive: -13.4% [at 20 µM]
O=[As](O)(c1ccccc1Br)c1ccccc1Br | inactive: -14.4%
O=P1(Nc2ccccn2)COc2ccccc2OC1 | inactive: -17%
CCOP(=O)(Nc1ccc(C)cn1)OCC | inactive: -27.4%
CC(C)(C)C(=O)NC(Sc1ncccn1)C(Cl)(Cl)Cl (stereo unspecified) | inactive: -14.6%
Clc1n[nH]nc1-c1nn[nH][15n]1 | inactive: -18.3%
Cc1ccc(NCCc2c([N+](=O)[O-])cc([N+](=O)[O-])cc2[N+](=O)[O-])cc1 | inactive: -17.2%
Nc1cccc2c([As](=O)(O)O)cccc12 | inactive: -24.8%
CCCOP(=S)(Nc1nc(N)cc(=O)[nH]1)OCCC | inactive: -12.6%
CCOP(=O)(Nc1cccc2ccccc12)OCC | inactive: -3.31%
COc1cc(C2NCCC3(OCCO3)C2(C)C)cc(OC)c1OC (stereo unspecified) | inactive: 7.54%
O=C(OC1CN2CCC1CC2)c1ccc(Cl)cc1 (stereo unspecified) | inactive: -9.76%
COc1cc(C(=O)NCC2(N3CCOCC3)CCCCC2)cc(Cl)c1OC(C)C | inactive: -34.3%
O=[As](O)(O)c1cccnc1 | inactive: -20%
O=[As](O)(c1cccc(O)c1)c1cccc(O)c1 | inactive: -10.2%
Cc1cccc(OCC(=O)OC2CN3CCC2CC3)c1 (stereo unspecified) | inactive: -10.6% [at 20 µM]
NC(=O)Nc1ccc([As](=O)(O)O)cc1 | inactive: -33.8%
CCOP1(=S)c2c(C)nn(CCC#N)c2N=C(c2ccc(F)cc2)N1C (stereo unspecified) | inactive: -20.3%
CN(C(=O)Cc1ccccc1)[C@@H]1CC[C@]2(CCCO2)C[C@H]1N1CCCC1 | inactive: -27.2%
O=[N+]([O-])c1ccc2c(c1)nnn2O | inactive: -7.05% [at 20 µM]
O=P(Nc1nccs1)(c1ccccc1)c1nc2ccccc2s1 (stereo unspecified) | inactive: -20.6%
O=P(Nc1nccs1)(Oc1ccccc1)Oc1ccccc1 | inactive: -22.6%
CCOP1(=S)c2c(C)nn(CCC#N)c2N=C(c2ccccc2F)N1C (stereo unspecified) | inactive: -18.2% [at 20 µM]
